Experimental data as given in patent US6030975A, “Carboxylic acid derivatives, their preparation and use in treating cancer” (priority 1997, dated 2000).

Target: T1, ETB receptor (Cavia porcellus, UniProt H0VTF3)
T1 construct: Guinea pig cerebella were homogenized; from tissue; host or cells: guinea pig cerebellum membranes
T1 sequence (H0VTF3 27-415): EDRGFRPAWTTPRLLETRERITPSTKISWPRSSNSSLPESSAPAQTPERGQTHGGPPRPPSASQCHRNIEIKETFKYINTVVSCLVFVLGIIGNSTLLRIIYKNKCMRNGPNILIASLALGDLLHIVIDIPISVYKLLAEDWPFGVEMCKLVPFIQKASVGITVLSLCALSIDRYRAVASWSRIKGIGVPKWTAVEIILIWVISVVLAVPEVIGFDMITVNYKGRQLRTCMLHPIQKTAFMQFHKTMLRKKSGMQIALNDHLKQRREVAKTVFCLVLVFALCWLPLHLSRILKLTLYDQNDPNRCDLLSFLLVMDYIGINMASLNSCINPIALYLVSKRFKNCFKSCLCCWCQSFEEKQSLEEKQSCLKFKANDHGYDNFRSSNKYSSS
Experiment: ETB receptor binding assay ([125I]-RZ3) on guinea pig cerebellar membranes
Conditions: Table III

Row | Structure (SMILES) | Ki
1 | COc1nc(OC(C(=O)O)C(OC)(c2ccccc2)c2ccccc2)nc2c1CCO2 (centres unmarked) [Compound I-87] | 57 nM
2 | COc1cc(C)nc(OC(C(=O)O)C(OC)(c2ccccc2)c2ccccc2)n1 (centres unmarked) [Compound I-103] | 29 nM
